Laboratory results: patent US20240058275A1, “NANO-SILICA - IN YEAST PARTICLE (YP) DRUG ENCAPSULATION APPROACH FOR IMPROVED THERMAL AND HYDROLASE STABILITY OF YP DRUG DELIVERY FORMULATIONS” (UNIVERSITY OF MASSACHUSETTS, priority 2022, published 2024)

Assay: Encapsulation efficiency of proteins ensilicated in GPs with 100% TEOS
Format: physicochemical
Details: 100% TEOS prepolymerized at pH 2, SDS-PAGE

Substance: Glucose oxidase
- % encapsulation efficiency in GPs: 98 ± 3%
